{"sequences": {"note": "Protein sequences, listed by entry. Tags and fused reporters are not part of them. Residues count along the entry.", "UniProt Q00987, 1-119": "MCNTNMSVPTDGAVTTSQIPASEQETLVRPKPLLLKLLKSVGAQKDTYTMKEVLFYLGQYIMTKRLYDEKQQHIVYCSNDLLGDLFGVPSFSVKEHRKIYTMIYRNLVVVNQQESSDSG"}, "source": "patent US10761085B2", "about": "“Method for determining a protein-protein interaction” (MEDICAL & BIOLOGICAL LABORATORIES CO., LTD., priority 2014, dated 2020)", "type_in_all_cases": "cell-based", "key": {"[1]": {"biological_target": "T1, interaction between p53 and MDM2 (Homo sapiens, UniProt Q00987)", "T1 construct": "a region having the amino acids from positions 1 to 119 of the MDM2 protein; expressed in transfected cells; host or cells: HEK293", "assay": "Fluorescent focus detection of p53(70)-MDM2 interaction, FIG. 1 system, HEK293 cells (Example 4)", "conditions": "40 μM, 30 minutes, room temperature; PB1-p53(70)+PB1-mAG1-MDM2 and p53(70)-mAG1-PB1+PB1-MDM2"}, "[2]": {"biological_target": "T1, interaction between p53 and MDM2", "assay": "Fluorescent focus detection of p53(70)-MDM2 interaction, FIG. 2 system, HEK293 cells (Example 6)", "conditions": "40 μM, 30 minutes; p53(70)-mAG1-PB1 or p53(70)-PB1-mAG1 with PB1-mAG1-MDM2"}, "[3]": {"biological_target": "T1, interaction between p53 and MDM2", "assay": "Fluorescent focus detection of p53(70)-MDM2 interaction, FIG. 3 system, HeLaS3 cells constitutively expressing mAG1-PB1 (Example 13)", "conditions": "20 μM, observed 15 minutes thereafter; mAG1-PB1 + p53(70)-PB1 + PB1-MDM2", "method": "After that, the obtained mixture solution was added to the cultured cells and cultured for 20 hours."}, "[4]": {"biological_target": "T1, interaction between p53 and MDM2", "assay": "Fluorescent focus detection of p53(70)-MDM2 interaction, FIG. 8 system with different multimerizable proteins, HEK293 cells (Example 19)", "conditions": "40 μM; 30 minutes after the Nutlin-3 addition; all 9 combinations", "method": "Subsequently, a DNA solution prepared by mixing 200 ng of each of the plasmids was diluted with 10 μL of OptiMEM. Thereafter, 0.8 μL of Fugene HD was added thereto and then stirred. The resultant was further mixed with 90 μl of the culture solution. After that, the obtained mixture solution was added to the cultured cells and cultured for 20 hours."}}, "data": [{"smiles": "COc1ccc(C2=N[C@@H](c3ccc(Cl)cc3)[C@@H](c3ccc(Cl)cc3)N2C(=O)N2CCNC(=O)C2)c(OC(C)C)c1", "note": "[Nutlin-3]", "values": [{"measurement": "extinction of fluorescent foci (inhibition of p53-MDM2 interaction)", "setting": "[1]", "result": "fluorescent foci were extinguished"}, {"measurement": "extinction of fluorescent foci (inhibition of p53-MDM2 interaction)", "setting": "[2]", "result": "fluorescent foci were extinguished"}, {"measurement": "extinction of fluorescent foci (inhibition of p53-MDM2 interaction)", "setting": "[3]", "result": "the fluorescent foci were extinguished"}, {"measurement": "extinction of fluorescent foci (inhibition of p53-MDM2 interaction)", "setting": "[4]", "result": "the fluorescent foci were extinguished"}]}]}
